Assay results reported in patent US10584159B2, “Renilla based biosensors for monitoring biomolecule localization and trafficking in cells” (The Royal Institution for the Advancement of …, priority 2014, dated 2020).

By UniProt entry, the sequences of proteins in these tests, tags left out. Where a name states a change or a piece, a line headed by the entry shows the natural chain unless it says otherwise.
UniProt P43088: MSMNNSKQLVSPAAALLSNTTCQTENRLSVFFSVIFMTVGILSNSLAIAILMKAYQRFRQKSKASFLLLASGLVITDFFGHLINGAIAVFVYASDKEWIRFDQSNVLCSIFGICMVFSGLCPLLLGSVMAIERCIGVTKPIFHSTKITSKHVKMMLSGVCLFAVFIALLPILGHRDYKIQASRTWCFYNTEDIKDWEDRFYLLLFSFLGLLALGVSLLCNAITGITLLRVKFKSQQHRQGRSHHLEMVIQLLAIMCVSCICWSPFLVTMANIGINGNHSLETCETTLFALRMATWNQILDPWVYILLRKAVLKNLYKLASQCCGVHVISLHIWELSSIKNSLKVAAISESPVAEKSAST

Target: T1, PGF2α receptor (FP) (Homo sapiens, UniProt P43088)
T1 construct: expressed in transfected cells; host or cells: HEK293SL
Assay: β-arrestin2 targeting to endosomes BRET (βarr2-RlucII/rGFP-endofinFYVE) with FP
Assay type: cell-based
Details: 40 min
Experimental: BRET measurements for FIGS. 1B to 9D, 25D to 25F. The following day of transfection, cells were detached and replated onto poly-ornithine coated white 96-well plate at a density of 25,000 cells per well. The next day, cells were washed once with pre-warmed Tyrode's buffer (140 mM NaCl, 2.7 mM KCl, 1 mM CaCl2, 12 mM NaHCO3, 5.6 mM D-glucose, 0.5 mM MgCl2, 0.37 mM NaH2PO4, 25 mM HEPES, pH 7.4), and then stimulated with either various concentrations of ligands in Tyrode's buffer for the indicated time, or single concentration of ligands for various times at 37° C. For recycling experiment, after stimulating the cells with the ligands for 30 min at 37° C., they were washed either three times with ice-cold Tyrode's buffer or once with Tyrode's buffer/three times with acid (50 mM sodium citrate, pH 4.0)/two times with Tyrode's buffer. All the washing steps were performed on ice. […] The cell-permeable substrate, coelenterazine 400a was added at a final concentration of 5 μM in Tyrode's buffer 3-4 min before BRET measurements. […] The BRET signal was determined by calculating the ratio of the light intensity emitted by the GFP10 or rGFP over the light intensity emitted by the RlucII. All the BRET measurements were performed in triplicate at 37° C.

Substance: Prostaglandin F2α [PGF2α]
- receptor/β-arrestin targeting to endosomes: no increase over basal in the BRET ratio was detected
